# Data as given in ChEMBL document CHEMBL1949672 (J Med Chem, 2012).
# Molecular target: Adenosine receptor A2a (Homo sapiens, UniProt P29274)
# Experiment: Binding affinity to human A2A adenosine receptor expressed in CHO cells
# Type: cell-based
structure (smiles),measurement,value
CCn1nnnc1[C@H]1O[C@@H](n2cnc3c(N)nc(N[C@H](CO)Cc4ccccc4)nc32)[C@H](O)[C@@H]1O,Ki,2.3 nM
